Laboratory results taken from ChEMBL document CHEMBL5365527, “Structure-Guided Design of Nurr1 Agonists Derived from the Natural Ligand Dihydroxyindole” (J Med Chem, 2023).
Activity calls are given as the source filed them. No cut-off for these calls is given here.

Chains of the proteins cited; added tags and fusions are not shown. Lines headed by an entry give the natural chain unless they say otherwise; changes in a name come on top.
UniProt Q07917, whole entry: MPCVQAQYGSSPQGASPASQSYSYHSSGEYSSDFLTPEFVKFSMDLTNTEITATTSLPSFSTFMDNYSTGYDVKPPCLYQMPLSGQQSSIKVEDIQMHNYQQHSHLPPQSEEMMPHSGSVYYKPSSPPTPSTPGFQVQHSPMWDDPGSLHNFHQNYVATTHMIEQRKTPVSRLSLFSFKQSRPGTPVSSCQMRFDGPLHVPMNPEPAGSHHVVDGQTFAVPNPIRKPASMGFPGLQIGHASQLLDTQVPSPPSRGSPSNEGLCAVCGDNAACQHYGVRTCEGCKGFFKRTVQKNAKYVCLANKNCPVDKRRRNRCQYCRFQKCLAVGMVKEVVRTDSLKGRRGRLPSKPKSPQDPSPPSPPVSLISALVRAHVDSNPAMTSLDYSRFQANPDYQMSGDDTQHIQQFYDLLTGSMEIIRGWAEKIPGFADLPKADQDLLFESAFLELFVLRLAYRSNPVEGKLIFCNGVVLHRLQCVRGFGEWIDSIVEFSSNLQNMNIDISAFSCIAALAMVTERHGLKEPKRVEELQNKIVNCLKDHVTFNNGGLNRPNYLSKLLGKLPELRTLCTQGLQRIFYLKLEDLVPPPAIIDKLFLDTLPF
UniProt Q92570: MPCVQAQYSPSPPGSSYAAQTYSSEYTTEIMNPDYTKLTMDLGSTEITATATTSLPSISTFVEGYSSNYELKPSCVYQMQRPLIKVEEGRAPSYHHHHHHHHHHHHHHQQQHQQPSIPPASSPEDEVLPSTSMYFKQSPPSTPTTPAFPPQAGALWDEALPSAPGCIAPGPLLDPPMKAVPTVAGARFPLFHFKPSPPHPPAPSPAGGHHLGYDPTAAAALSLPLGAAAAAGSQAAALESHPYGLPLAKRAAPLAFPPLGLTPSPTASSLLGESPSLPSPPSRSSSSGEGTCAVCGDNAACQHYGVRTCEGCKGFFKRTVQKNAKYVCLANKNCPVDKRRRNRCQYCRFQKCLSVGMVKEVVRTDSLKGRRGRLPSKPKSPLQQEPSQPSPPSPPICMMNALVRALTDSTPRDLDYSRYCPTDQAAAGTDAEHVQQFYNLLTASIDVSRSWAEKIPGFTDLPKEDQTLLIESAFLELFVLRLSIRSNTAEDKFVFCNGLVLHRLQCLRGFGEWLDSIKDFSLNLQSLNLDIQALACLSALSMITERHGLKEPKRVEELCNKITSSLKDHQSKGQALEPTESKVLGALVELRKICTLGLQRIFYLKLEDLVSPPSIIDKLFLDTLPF
UniProt P10276, whole entry: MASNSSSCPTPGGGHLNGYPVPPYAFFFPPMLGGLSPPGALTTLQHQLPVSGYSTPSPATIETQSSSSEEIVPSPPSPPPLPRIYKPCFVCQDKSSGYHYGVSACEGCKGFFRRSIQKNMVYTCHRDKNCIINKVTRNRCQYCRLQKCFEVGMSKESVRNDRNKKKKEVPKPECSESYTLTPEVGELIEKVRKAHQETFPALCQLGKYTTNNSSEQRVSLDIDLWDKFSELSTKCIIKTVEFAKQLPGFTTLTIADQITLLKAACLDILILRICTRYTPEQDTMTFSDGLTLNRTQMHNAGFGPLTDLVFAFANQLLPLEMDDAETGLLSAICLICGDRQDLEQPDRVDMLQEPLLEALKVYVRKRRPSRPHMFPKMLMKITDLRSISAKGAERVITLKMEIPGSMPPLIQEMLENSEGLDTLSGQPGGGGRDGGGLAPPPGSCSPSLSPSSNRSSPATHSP
UniProt P51449: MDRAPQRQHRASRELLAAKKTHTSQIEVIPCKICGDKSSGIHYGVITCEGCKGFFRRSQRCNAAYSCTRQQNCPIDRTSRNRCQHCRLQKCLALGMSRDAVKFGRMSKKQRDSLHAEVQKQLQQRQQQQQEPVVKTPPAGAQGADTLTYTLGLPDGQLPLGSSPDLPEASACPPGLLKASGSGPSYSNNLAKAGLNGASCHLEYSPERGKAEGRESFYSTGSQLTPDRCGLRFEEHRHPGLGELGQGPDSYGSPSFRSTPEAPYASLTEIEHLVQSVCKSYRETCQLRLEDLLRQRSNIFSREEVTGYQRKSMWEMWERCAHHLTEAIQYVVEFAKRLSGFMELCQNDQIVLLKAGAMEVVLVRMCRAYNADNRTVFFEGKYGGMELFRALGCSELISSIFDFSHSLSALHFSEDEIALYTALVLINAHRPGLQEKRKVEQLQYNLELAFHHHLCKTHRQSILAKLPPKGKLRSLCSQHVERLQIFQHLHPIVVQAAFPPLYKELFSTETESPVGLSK
UniProt Q13133, whole entry: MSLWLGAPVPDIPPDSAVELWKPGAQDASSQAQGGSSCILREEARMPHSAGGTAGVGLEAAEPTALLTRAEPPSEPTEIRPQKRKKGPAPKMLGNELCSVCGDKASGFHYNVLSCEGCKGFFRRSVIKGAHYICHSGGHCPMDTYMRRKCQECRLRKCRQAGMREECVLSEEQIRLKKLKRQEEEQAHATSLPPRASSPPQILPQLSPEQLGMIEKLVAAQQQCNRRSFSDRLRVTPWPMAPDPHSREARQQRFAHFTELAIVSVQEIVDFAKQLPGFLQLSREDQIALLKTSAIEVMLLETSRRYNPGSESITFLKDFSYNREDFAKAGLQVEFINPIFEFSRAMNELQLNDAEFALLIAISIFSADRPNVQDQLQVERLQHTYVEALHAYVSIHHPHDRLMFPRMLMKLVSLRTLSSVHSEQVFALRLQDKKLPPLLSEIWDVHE
UniProt P22736, whole entry: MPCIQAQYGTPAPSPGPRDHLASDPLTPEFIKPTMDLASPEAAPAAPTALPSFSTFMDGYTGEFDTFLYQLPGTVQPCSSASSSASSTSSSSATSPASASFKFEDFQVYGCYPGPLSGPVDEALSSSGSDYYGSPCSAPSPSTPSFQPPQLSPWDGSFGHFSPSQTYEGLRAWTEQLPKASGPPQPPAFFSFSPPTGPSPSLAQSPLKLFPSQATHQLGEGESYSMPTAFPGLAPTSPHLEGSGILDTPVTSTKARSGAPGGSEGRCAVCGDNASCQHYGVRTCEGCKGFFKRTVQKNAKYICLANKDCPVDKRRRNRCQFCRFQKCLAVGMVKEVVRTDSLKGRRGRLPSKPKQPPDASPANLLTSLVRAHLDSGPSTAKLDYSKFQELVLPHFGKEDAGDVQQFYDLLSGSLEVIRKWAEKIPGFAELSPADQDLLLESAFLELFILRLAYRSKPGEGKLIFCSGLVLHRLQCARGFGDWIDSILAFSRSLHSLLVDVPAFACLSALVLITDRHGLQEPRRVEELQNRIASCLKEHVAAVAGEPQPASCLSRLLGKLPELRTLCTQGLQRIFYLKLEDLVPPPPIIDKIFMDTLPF

Columns and labels:
Format in all cases: cell-based
[1] = target: Nuclear receptor subfamily 4 group A member 2 (Rattus norvegicus) (UniProt Q07917); experiment: Agonist activity at Nurr1 in rat N27 cells assessed as increase in SOD2 mRNA expression level at 3 to 30 uM incubated for 16 hrs by qPCR analysis; details: filed as agonist, dose 3-30 µM
[2] = target: T1, Retinoic acid receptor RXR-alpha (Homo sapiens) (UniProt P19793); experiment: Modulation activity at RXRalpha LBD (unknown origin) transfected in human HEK293T cells co-transfected with pFR-Luc/pRL-SV40 assessed as fold activation of luciferase activity at 30 uM incubated for 16 hrs by Gal4 hybrid reporter gene assay relative to control
T1 sequence (whole entry): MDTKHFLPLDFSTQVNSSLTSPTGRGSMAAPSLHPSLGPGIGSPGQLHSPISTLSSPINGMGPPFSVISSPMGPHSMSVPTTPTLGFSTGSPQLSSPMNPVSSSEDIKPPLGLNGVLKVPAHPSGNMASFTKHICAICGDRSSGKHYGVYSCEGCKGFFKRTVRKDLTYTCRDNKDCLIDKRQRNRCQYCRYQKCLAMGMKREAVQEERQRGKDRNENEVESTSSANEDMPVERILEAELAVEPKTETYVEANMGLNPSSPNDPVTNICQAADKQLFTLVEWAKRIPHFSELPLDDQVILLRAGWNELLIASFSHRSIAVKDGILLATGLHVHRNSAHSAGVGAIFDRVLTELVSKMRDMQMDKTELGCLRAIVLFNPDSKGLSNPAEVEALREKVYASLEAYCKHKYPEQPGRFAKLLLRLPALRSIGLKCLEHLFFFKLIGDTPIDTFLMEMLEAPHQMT

[3] = target: T2, Thyroid hormone receptor alpha (Homo sapiens) (UniProt P10827); experiment: Modulation activity at THRalpha LBD (unknown origin) transfected in human HEK293T cells co-transfected with pFR-Luc/pRL-SV40 assessed as fold activation of luciferase activity at 30 uM incubated for 16 hrs by Gal4 hybrid reporter gene assay relative to control
T2 sequence (whole entry): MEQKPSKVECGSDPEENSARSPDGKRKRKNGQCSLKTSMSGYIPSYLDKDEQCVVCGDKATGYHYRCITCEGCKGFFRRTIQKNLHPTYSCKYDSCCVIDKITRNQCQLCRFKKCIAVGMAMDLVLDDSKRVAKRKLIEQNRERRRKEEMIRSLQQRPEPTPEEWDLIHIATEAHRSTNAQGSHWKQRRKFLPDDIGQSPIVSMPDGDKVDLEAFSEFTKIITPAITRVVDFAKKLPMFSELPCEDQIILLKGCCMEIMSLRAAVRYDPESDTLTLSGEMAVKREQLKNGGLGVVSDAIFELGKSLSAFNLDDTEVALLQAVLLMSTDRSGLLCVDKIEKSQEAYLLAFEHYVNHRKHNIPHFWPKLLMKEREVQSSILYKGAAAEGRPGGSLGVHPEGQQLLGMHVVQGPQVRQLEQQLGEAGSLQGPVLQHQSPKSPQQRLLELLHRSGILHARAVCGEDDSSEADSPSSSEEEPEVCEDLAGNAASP

[4] = target: Nuclear receptor subfamily 4 group A member 3 (Homo sapiens) (UniProt Q92570); experiment: Agonist activity at NOR1 LBD (unknown origin) transfected in human HEK293T cells co-transfected with pFR-Luc/pRL-SV40 assessed as fold activation of luciferase activity incubated for 16 hrs by Gal4 hybrid reporter gene assay
[5] = target: Nuclear receptor subfamily 4 group A member 2 (Rattus norvegicus) (UniProt Q07917); experiment: Agonist activity at Nurr1 in rat N27 cells assessed as increase in TH mRNA expression level at 3 to 30 uM incubated for 16 hrs by qPCR analysis; details: filed as agonist, dose 3-30 µM
[6] = target: Retinoic acid receptor alpha (Homo sapiens) (UniProt P10276); experiment: Modulation activity at RARalpha LBD (unknown origin) transfected in human HEK293T cells co-transfected with pFR-Luc/pRL-SV40 assessed as fold activation of luciferase activity at 30 uM incubated for 16 hrs by Gal4 hybrid reporter gene assay relative to control
[7] = target: T3, Bile acid receptor (Homo sapiens) (UniProt Q96RI1); experiment: Modulation activity at FXR LBD (unknown origin) transfected in human HEK293T cells co-transfected with pFR-Luc/pRL-SV40 assessed as fold activation of luciferase activity at 30 uM incubated for 16 hrs by Gal4 hybrid reporter gene assay relative to control
T3 sequence (whole entry): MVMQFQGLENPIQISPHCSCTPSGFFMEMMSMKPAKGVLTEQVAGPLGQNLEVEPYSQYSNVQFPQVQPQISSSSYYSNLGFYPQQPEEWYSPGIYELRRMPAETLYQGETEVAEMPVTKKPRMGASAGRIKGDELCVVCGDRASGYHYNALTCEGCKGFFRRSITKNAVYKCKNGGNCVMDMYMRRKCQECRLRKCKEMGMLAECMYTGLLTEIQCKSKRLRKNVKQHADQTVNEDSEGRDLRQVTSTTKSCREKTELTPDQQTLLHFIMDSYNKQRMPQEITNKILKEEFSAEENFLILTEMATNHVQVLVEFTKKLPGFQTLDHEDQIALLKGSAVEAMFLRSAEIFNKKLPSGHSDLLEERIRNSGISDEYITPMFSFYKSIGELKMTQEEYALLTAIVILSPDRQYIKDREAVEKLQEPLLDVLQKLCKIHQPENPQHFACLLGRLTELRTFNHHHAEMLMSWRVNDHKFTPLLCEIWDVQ

[8] = target: Nuclear receptor subfamily 4 group A member 2 (Rattus norvegicus) (UniProt Q07917); experiment: Agonist activity at Nurr1 in rat N27 cells assessed as increase in VMAT mRNA expression level at 3 to 30 uM incubated for 16 hrs by qPCR analysis; details: filed as agonist, dose 3-30 µM
[9] = target: Nuclear receptor ROR-gamma (Homo sapiens) (UniProt P51449); experiment: Modulation activity at RORgamma LBD (unknown origin) transfected in human HEK293T cells co-transfected with pFR-Luc/pRL-SV40 assessed as fold activation of luciferase activity at 30 uM incubated for 16 hrs by Gal4 hybrid reporter gene assay relative to control
[10] = target: Nuclear receptor subfamily 4 group A member 2 (Rattus norvegicus) (UniProt Q07917); experiment: Agonist activity at Nurr1 in rat N27 cells assessed as increase in SOD1 mRNA expression level at 3 to 30 uM incubated for 16 hrs by qPCR analysis; details: filed as agonist, dose 3-30 µM
[11] = target: Oxysterols receptor LXR-alpha (Homo sapiens) (UniProt Q13133); experiment: Modulation activity at LXRalpha LBD (unknown origin) transfected in human HEK293T cells co-transfected with pFR-Luc/pRL-SV40 assessed as fold activation of luciferase activity at 30 uM incubated for 16 hrs by Gal4 hybrid reporter gene assay relative to control
[12] = target: T4, Nuclear receptor subfamily 1 group D member 1 (Homo sapiens) (UniProt P20393); experiment: Modulation activity at Rev-ERBalpha LBD (unknown origin) transfected in human HEK293T cells co-transfected with pFR-Luc/pRL-SV40 assessed as fold activation of luciferase activity at 30 uM incubated for 16 hrs by Gal4 hybrid reporter gene assay relative to control
T4 sequence (whole entry): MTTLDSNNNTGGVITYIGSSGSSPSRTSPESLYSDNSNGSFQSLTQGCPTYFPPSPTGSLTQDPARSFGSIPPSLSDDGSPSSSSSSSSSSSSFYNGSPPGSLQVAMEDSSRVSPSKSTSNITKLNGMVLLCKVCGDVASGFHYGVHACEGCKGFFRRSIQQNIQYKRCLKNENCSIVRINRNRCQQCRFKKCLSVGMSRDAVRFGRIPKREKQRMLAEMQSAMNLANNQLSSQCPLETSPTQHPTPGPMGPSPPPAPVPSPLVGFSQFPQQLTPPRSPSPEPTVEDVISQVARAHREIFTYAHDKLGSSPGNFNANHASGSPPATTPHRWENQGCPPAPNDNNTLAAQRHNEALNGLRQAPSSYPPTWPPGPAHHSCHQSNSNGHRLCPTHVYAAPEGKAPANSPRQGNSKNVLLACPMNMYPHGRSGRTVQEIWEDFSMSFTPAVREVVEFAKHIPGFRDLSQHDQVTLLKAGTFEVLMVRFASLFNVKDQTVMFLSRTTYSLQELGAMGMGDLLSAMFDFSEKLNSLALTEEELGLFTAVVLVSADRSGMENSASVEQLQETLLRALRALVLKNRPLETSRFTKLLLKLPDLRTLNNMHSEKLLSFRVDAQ

[13] = target: Nuclear receptor subfamily 4immunitygroup A member 1 (Homo sapiens) (UniProt P22736); experiment: Agonist activity at Nur77 LBD (unknown origin) transfected in human HEK293T cells co-transfected with pFR-Luc/pRL-SV40 assessed as fold activation of luciferase activity incubated for 16 hrs by Gal4 hybrid reporter gene assay; details: filed as agonist
[14] = target: T5, Vitamin D3 receptor (Homo sapiens) (UniProt P11473); experiment: Modulation activity at VDR LBD (unknown origin) transfected in human HEK293T cells co-transfected with pFR-Luc/pRL-SV40 assessed as fold activation of luciferase activity at 30 uM incubated for 16 hrs by Gal4 hybrid reporter gene assay relative to control
T5 sequence (whole entry): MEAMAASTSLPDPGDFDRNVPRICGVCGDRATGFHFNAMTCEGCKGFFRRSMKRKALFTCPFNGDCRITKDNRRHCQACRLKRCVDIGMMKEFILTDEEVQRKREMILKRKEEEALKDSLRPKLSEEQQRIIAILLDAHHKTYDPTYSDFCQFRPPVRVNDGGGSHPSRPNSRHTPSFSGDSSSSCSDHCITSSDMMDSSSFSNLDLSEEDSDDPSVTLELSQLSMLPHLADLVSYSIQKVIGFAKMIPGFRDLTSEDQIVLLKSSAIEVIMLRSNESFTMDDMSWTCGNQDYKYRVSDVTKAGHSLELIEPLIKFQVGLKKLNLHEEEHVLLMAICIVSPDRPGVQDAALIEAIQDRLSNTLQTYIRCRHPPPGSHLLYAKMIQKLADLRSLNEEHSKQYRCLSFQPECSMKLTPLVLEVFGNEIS

Activity [1]	Activity [2]	Activity [3]	Activity [4]	Activity [5]	Activity [6]	Activity [7]	Activity [8]	Activity [9]	Activity [10]	Activity [11]	Activity [12]	Activity [13]	Activity [14]	SMILES
Dose-Dependent Effect	inactive	inactive	inactive	Dose-Dependent Effect	inactive	inactive	Dose-Dependent Effect	inactive	Dose-Dependent Effect	inactive	inactive	Active	inactive	CN(C)CCOc1ccc(Cl)cc1Nc1ccnc2cc(Cl)ccc12
Dose-Dependent Effect	inactive	inactive	inactive	Dose-Dependent Effect	inactive	inactive	Dose-Dependent Effect	inactive	Dose-Dependent Effect	inactive	inactive	Active	inactive	CN(C)CCOc1ccc(Cl)cc1NC(=O)c1cc2[nH]ccc2cc1Cl
